This test has as its system Mycobacterium tuberculosis. Particulars: H37Rv.

The source made the active and inactive calls. The calls are words filed in the database; no cut-off is given here.

In ChEMBL document CHEMBL3763142, “Discovery of potent anti-tuberculosis agents targeting leucyl-tRNA synthetase” (Bioorg Med Chem, 2016) one finds MIC data, which are given here for 2 molecules.

As for `O=[N+]([O-])c1cc(/C=N\Nc2nccs2)ccc1O`, the MIC entry is “inactive”.
Under `O=[N+]([O-])c1ccc(-c2csc(N/N=C\c3ccc(O)c([N+](=O)[O-])c3)n2)cc1` stands “inactive”.
